Marks after values point to notes of the source that are not given here.
Experiments:
[1] = system: rat CDHFD+NaNO2 NASH model; experiment: Rat CDHFD+NaNO2 NASH model, liver RNAseq; type: in vivo; settings: 8 wk, Compound 1 25 mg/kg, Compound 3 3 mg/kg
Procedure: Animal handling: After arrival, the rats were left for a 2-week acclimation period, during which they were accustomed to the animal facility staff and trained on the procedure of oral gavage. After 2 weeks the animals were put on CHDFD (choline deficient high fat diet) and pre-fed for 4 weeks. Then the rats were started on treatment with test compounds, and 3× per week i.p. NaNO2 injections, while they remained on CDHFD, for an additional 8 weeks. NaNO2 was administered at 25 mg/kg i.p. dissolved in PBS 3 times a week (on Mondays, Wednesdays, and Fridays) for 8 weeks while on CDHFD.
(§1) Final Sacrifice: Half of the animals of each treatment group were terminated on day 84. The other half of the animals in each group were terminated on the following day, day 85. On the day of sacrifice the animals were fasted for 2 h and received a final treatment with the respective test substance. After the final compound treatment, the animals had no more access to food until sacrifice. At 4 h after the last administration all animals were sacrificed and livers were sampled for further analysis.
Animal handling: After arrival, the rats were left for a 2-week acclimation period, during which they were accustomed to the animal facility staff and trained on the procedure of oral gavage. After 2 weeks the animals were placed on a choline deficient high fat diet (CDHFD) and pre-fed for 4 weeks to induce steatosis and a NASH-like disease phenotype. Rats were then treated with test compounds for an additional 8 weeks while on CDHFD. Concomitant with compound treatment, rats were administered sodium nitrite (NaNO2, 25 mg/kg dissolved in PBS) by triweekly intraperitoneal (IP) injection to induce liver fibrosis.
as §1, with “2 hours” for “2 h”, “4 hours” for “4 h”
Sampling and analysis: Small liver pieces were harvested into RNAlater (Thermo Fisher Scientific Dreieich Germany) and stored at −20° C. prior to RNA sequencing (RNAseq) at MedGenome Inc. RNAseq analysis was performed on liver tissue by Illumina sequencing using standard methodologies. Briefly, RNAseq libraries (n=5 per group) were generated using Illumina Truseq stranded mRNA kits and sequencing was performed on a NovaSeq 6000 sequencer. Alignment was performed using STAR (v2.7.3a) aligner and reads mapping to ribosomal and mitochondrial genome were removed prior to alignment. Raw read counts were estimated using HTSeq (v0.11.1) and normalized using DESeq2 (v2.22.2). Differentially expressed genes (DEGs) were determined using DESeq2 (R Bioconductor package).

[2] = target: T1, VAP-1 (Homo sapiens, UniProt Q16853); experiment: Compound 1 10 mg QD for 12 weeks in adults with non-cirrhotic NASH phenotype; type: in vivo
T1 construct: from tissue; host or cells: plasma of trial patients
T1 sequence (Q16853 29-763 limits assumed): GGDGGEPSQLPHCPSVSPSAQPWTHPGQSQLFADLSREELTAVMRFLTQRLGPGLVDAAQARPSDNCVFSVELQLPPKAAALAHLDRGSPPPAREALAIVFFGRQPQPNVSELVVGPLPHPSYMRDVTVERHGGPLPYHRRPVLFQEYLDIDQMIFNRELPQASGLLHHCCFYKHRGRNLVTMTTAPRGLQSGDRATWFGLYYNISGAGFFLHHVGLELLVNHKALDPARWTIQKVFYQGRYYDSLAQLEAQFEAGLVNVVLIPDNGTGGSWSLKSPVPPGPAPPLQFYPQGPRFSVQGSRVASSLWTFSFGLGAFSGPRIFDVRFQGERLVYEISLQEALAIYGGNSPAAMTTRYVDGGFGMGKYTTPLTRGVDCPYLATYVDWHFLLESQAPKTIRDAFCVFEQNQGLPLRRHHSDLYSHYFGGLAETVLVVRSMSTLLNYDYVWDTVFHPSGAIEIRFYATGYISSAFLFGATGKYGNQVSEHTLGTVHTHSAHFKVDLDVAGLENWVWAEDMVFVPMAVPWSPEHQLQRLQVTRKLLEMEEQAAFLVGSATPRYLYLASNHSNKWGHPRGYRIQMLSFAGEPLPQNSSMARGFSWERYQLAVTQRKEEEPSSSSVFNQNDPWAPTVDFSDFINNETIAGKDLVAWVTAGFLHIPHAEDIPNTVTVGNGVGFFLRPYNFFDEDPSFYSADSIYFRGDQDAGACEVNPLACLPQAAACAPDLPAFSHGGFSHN
Procedure: Part 1 of the two-part trial was a double-blind, placebo-controlled study in 30 adults with non-cirrhotic NASH phenotype evaluating 10 mg Compound 1 once daily (QD) for 12 weeks followed by off-treatment evaluation at week 16 (FIG. 28). Part 1 interim analysis primary endpoint was safety assessed by adverse events (AEs) and laboratory tests; percent change from baseline (BL) in plasma VAP-1 activity was a secondary endpoint. Exploratory imaging and blood-based biomarkers of liver inflammation and fibrosis were also assessed. Analyses of change (or percent change) from baseline used an ANCOVA model with change (or percent change) from baseline as the dependent variable including treatment group and randomization strata as fixed effects and baseline as a covariate.

[3] = Multiple-ascending dose trial of Compound 1 in healthy participants: safety and PK; type: in vivo, human; settings: mean (CV %)
Procedure: A multiple-ascending dose clinical trial of Compound 1 was performed. 3 groups of 8 healthy participants were randomized to receive multiple once daily (QD) doses of Compound 1 or matching placebo in a 3:1 ratio for 7 days (1 mg and 4 mg) or 14 days (10 mg). Plasma levels of Compound 1 and PD biomarkers (plasma amine oxidase activity and methylamine levels) were determined at pre-dose and various timepoints post-dose.

In the case of `COC1CCN(c2ncc(OC/C(=C/F)CN)cn2)CC1` [Compound 1, (E)-3-fluoro-2-(((2-(4-methoxypiperidin-1-yl)pyrimidin-5-yl)oxy)methyl)prop-2-en-1-amine], the “Fabp2 differential gene expression relative to vehicle control” value [1] is reported as −1.02* log2-fold change, the “Irs1 differential gene expression relative to vehicle control” value [1] is reported as 0.26 log2-fold change and the “Irs2 differential gene expression relative to vehicle control” value [1] is reported as 0.13 log2-fold change. For the same molecule, the “Ldlr differential gene expression relative to vehicle control” value [1] was 0.41* log2-fold change, the “Ldlrap1 differential gene expression relative to vehicle control” value [1] was 0.38* log2-fold change and the “Lrp1 differential gene expression relative to vehicle control” value [1] was 0.25 log2-fold change. The “Lrp2 differential gene expression relative to vehicle control” value [1] was 0.08 log2-fold change, the “Ppara differential gene expression relative to vehicle control” value [1] was 0.32 log2-fold change and the “Ppargcla differential gene expression relative to vehicle control” value [1] was 0.51* log2-fold change. For the same molecule, the “Rxra differential gene expression relative to vehicle control” value [1] was 0.51 log2-fold change, the “Slc27a1 differential gene expression relative to vehicle control” value [1] was 0.33 log2-fold change and the “Slc27a5 differential gene expression relative to vehicle control” value [1] was 0.68* log2-fold change. The “Vegfa differential gene expression relative to vehicle control” value [1] was 0.23 log2-fold change, the “Vegfc differential gene expression relative to vehicle control” value [1] was −0.45* log2-fold change and the “Vldlr differential gene expression relative to vehicle control” value [1] was −1.6* log2-fold change. For the same molecule, the “ICAM-1 decrease relative to BL, mean (±SE)” value ([2]; Week 8, p=0.0313 vs placebo) was 34.85 (56.03) μg/L, the “TIMP-1 decrease relative to BL, mean (±SE)” value ([2]; Week 12, p<0.05 vs placebo) was 29.58 (9.26) ng/mL and the “VCAM-1 decrease relative to BL” value ([2]; Week 12, p=0.0245 vs placebo) was 24.327 (20.5850) μg/L. For the same molecule, the “AR (Cmax), accumulation ratio between Day 1 and Last Day” value ([3]; 1 mg QD 7 days) was 5.98 (49), the “AR (AUC), accumulation ratio between Day 1 and Last Day” value ([3]; 4 mg QD 7 days) was 11.7 (22) and the “AR (Cmax), accumulation ratio between Day 1 and Last Day” value ([3]; 4 mg QD 7 days) was 4.32 (34). For the same molecule, the “AR (AUC), accumulation ratio between Day 1 and Last Day” value ([3]; 10 mg QD 14 days) was 8.2 (63) and the “AR (Cmax), accumulation ratio between Day 1 and Last Day” value ([3]; 10 mg QD 14 days) was 3.35 (57).
